For this assay, the target named is Delta-type opioid receptor (Rattus norvegicus) (UniProt P33533). The assay can be described thus: Binding affinity for rat delta opioid receptor was evaluated by displacing [3H]- diprenorphine.

Amino acid sequences for entries named in this document (tags omitted).
UniProt P33533, whole entry, looked up: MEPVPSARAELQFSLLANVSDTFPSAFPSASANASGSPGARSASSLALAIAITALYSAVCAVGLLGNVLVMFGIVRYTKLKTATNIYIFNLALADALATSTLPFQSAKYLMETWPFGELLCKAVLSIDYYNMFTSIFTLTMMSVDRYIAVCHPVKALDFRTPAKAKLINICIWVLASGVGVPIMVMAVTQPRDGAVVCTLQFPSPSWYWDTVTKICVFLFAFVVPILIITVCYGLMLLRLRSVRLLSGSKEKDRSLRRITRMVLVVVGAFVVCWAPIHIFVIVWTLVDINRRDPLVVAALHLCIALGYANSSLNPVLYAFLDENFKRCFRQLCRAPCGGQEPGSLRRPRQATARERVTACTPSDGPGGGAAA

Compound `CN(C(=O)Cc1ccc(Cl)c(Cl)c1)C1CCCCC1N1CCCC1` (stereo unspecified) showed a Binding affinity of over 25 µM.

For the origin of these results see ChEMBL document CHEMBL1126934, “Non-peptide ligands for opioid receptors. Design of kappa-specific agonists” (J Med Chem, 1993).
